{"sequences": {"note": "The chains behind the UniProt entries cited, without tags or fusion partners.", "UniProt E9Q401, whole entry R4495C": "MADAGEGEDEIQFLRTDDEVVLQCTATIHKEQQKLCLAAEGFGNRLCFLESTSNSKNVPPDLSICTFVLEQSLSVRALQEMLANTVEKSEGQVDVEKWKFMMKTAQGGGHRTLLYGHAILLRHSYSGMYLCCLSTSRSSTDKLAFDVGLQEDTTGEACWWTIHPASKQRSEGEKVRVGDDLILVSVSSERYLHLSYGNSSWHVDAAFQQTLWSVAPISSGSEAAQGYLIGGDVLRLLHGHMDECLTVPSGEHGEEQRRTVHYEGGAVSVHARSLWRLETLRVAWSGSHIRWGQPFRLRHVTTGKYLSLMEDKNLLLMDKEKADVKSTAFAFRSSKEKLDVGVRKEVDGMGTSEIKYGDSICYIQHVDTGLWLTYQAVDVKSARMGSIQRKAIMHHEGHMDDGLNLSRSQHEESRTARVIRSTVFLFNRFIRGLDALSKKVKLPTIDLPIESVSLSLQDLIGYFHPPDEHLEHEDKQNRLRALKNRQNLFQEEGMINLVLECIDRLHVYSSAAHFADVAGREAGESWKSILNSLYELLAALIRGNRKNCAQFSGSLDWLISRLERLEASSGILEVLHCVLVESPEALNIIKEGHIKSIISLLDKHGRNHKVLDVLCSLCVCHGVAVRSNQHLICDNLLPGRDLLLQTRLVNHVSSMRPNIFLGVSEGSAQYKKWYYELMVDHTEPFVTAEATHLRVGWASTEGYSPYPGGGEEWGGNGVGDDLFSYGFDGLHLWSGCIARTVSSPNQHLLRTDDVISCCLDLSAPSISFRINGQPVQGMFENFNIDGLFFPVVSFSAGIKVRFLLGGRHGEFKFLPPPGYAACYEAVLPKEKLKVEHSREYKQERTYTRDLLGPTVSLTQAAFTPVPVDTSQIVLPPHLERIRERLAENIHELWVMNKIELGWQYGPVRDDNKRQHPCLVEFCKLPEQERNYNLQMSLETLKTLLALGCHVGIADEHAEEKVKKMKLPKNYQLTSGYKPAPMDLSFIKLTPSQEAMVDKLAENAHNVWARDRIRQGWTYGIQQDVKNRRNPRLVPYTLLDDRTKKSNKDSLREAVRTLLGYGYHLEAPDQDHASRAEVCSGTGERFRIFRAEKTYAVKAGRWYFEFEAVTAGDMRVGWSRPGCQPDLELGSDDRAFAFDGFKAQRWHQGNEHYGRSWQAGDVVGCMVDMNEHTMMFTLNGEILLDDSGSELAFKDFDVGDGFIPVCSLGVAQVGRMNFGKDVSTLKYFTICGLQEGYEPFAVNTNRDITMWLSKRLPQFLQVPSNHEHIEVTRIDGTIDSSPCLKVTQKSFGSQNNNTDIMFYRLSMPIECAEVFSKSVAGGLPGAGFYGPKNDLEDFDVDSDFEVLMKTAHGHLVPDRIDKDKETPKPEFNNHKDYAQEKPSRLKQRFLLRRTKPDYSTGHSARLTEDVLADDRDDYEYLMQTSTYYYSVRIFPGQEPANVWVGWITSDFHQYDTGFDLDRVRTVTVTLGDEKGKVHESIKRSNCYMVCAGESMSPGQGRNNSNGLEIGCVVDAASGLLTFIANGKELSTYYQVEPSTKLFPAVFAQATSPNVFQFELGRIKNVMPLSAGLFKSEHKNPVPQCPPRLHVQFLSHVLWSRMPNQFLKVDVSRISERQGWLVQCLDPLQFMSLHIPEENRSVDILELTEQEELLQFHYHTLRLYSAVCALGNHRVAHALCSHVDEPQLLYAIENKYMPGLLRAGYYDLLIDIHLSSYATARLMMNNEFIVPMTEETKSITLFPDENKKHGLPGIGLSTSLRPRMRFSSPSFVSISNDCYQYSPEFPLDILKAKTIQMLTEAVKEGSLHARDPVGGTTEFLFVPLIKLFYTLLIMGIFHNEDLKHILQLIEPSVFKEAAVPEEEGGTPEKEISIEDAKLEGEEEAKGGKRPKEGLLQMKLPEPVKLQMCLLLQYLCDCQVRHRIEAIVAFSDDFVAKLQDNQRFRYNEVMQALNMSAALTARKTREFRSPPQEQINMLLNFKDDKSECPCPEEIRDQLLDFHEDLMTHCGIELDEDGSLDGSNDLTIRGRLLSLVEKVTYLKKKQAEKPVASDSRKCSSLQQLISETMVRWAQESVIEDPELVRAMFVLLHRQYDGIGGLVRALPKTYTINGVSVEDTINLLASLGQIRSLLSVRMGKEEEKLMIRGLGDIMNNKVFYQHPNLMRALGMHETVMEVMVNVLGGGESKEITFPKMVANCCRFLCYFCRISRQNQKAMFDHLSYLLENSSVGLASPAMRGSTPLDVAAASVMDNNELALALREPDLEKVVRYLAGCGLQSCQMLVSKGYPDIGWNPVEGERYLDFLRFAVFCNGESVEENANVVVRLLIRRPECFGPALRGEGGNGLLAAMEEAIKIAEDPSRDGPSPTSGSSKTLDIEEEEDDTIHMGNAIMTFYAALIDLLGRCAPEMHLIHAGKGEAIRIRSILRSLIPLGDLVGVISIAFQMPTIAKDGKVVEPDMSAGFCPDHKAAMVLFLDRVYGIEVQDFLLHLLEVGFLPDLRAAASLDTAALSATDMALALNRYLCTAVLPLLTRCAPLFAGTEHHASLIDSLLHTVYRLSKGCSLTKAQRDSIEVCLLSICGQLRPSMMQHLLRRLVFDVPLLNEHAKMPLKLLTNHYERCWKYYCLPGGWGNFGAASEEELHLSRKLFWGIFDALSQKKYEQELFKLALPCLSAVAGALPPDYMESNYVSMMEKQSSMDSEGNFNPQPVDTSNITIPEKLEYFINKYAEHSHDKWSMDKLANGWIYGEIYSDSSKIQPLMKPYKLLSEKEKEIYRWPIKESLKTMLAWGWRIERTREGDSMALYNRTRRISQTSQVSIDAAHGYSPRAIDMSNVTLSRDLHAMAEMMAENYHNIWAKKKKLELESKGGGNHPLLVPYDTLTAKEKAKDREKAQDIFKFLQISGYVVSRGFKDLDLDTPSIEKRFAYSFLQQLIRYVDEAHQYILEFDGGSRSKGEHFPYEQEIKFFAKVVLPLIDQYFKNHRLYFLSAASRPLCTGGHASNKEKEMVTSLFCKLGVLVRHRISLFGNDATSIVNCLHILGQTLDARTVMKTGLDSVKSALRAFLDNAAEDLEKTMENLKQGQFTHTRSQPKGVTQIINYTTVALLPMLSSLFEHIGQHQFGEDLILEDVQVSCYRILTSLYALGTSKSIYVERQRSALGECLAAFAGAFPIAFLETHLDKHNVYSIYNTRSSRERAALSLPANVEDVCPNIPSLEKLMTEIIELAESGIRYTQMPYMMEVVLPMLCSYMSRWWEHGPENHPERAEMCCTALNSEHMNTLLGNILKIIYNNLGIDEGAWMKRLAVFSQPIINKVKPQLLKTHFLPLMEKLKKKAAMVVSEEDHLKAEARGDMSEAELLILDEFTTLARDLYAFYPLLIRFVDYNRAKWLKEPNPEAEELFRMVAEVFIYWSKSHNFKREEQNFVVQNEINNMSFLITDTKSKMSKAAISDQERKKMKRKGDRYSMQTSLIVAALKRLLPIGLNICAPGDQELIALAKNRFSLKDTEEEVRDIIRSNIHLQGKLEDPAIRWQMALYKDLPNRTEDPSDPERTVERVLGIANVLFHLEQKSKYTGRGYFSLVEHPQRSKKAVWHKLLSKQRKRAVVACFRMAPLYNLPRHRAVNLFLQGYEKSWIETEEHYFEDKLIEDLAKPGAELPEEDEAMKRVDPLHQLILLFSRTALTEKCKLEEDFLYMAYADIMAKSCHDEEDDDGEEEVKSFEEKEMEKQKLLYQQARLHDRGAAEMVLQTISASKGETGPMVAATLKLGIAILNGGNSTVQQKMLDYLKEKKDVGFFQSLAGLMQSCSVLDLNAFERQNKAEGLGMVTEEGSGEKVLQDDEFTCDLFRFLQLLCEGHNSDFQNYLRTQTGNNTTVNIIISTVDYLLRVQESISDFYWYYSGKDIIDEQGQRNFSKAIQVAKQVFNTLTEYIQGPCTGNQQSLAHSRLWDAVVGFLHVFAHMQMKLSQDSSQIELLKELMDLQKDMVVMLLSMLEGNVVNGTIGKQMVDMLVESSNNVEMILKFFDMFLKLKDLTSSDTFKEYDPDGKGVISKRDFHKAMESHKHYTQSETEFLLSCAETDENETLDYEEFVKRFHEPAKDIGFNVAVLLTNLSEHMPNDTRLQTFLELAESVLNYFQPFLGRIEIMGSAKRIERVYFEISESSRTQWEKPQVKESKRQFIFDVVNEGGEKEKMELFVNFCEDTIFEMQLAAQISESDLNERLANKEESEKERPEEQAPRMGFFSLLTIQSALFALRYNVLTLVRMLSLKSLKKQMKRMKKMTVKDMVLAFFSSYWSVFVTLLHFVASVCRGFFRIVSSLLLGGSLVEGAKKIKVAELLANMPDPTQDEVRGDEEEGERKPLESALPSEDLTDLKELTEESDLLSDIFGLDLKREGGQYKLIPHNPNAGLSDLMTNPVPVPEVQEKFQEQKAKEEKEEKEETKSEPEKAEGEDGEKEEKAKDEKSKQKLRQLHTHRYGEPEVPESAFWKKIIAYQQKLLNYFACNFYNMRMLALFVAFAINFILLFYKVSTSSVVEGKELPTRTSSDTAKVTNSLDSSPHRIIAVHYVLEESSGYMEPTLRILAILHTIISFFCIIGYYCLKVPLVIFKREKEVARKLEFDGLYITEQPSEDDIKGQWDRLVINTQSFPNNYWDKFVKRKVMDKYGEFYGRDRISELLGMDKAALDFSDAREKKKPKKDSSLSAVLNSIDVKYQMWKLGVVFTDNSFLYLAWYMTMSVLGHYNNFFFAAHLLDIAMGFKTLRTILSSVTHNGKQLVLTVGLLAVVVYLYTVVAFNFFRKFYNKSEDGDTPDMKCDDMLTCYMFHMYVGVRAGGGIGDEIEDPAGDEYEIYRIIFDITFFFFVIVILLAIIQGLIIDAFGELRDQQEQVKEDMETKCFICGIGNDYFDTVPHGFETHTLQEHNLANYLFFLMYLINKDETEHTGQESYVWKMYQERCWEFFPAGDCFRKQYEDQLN"}, "source": "patent US12091408B2", "about": "“Store overload-induced calcium release inhibitors and methods for producing and using the same” (UTI Limited Partnership, priority 2013, dated 2024)", "note": "“Also recorded” adds a separate entry of the source.", "data": [{"target": "T1, RyR2-R4496C mutant HEK-293 cell line (Mus musculus, UniProt E9Q401, R4495C)", "T1 construct": "expressed in transfected cells; host or cells: HEK-293", "test": "SOICR inhibition, single cell bioassay (fura 2/AM calcium fluorescence)", "assay_type": "cell-based", "settings": "RyR2-R4496C mutant HEK293 single cell bioassay", "protocol": "(§1) IC50 values were measured for each of the compounds investigated.\n(§2) All compounds were tested for SOICR inhibition in the RyR2-R4496C mutant HEK293 cell line and the IC50 values.", "values": [{"compound": "COc1ccccc1OCCNCC(O)COc1ccc2[nH]c3ccccc3c2c1", "note": "(stereo not drawn) [Compound 3]", "SOICR inhibitory activity in words": "superior to carvedilol"}, {"compound": "OC(CNCCOc1ccccc1)COc1cccc2[nH]c3ccccc3c12", "note": "(stereo not drawn) [Compound 8]", "SOICR inhibitory activity in words": "without deleterious effects on SOICR inhibition"}, {"compound": "Oc1ccccc1OCCNCC(O)COc1cccc2[nH]c3ccccc3c12", "note": "(stereo not drawn) [Compound 9]", "SOICR inhibitory activity in words": "without deleterious effects on SOICR inhibition"}, {"compound": "Cc1ccccc1OCCNCC(O)COc1cccc2[nH]c3ccccc3c12", "note": "(stereo not drawn) [Compound 10]", "SOICR inhibitory activity in words": "without deleterious effects on SOICR inhibition"}, {"compound": "CSc1ccccc1OCCNCC(O)COc1cccc2[nH]c3ccccc3c12", "note": "(stereo not drawn) [Compound 11]", "SOICR inhibitory activity in words": "without deleterious effects on SOICR inhibition"}, {"compound": "COc1ccccc1SCCNCC(O)COc1cccc2[nH]c3ccccc3c12", "note": "(stereo not drawn) [Compound 12]", "SOICR inhibitory activity in words": "without deleterious effects on SOICR inhibition"}, {"compound": "COc1ccccc1CCCNCC(O)COc1cccc2[nH]c3ccccc3c12", "note": "(stereo not drawn) [Compound 13]", "SOICR inhibitory activity in words": "without deleterious effects on SOICR inhibition"}, {"compound": "OC(CNCCCc1ccccc1)COc1cccc2[nH]c3ccccc3c12", "note": "(stereo not drawn) [Compound 14]", "SOICR inhibitory activity in words": "without deleterious effects on SOICR inhibition; also recorded: roughly twice as potent as 1"}, {"compound": "COc1ccccc1OCCN1CC(COc2ccc3[nH]c4ccccc4c3c2)OCC1=O", "note": "(stereo not drawn) [Compound 41]", "SOICR inhibitory activity in words": "superior to carvedilol"}, {"compound": "COc1ccccc1OCCNCC(O)CCOc1ccc2[nH]c3ccccc3c2c1", "note": "(stereo not drawn) [Compound 43]", "SOICR inhibitory activity in words": "superior to carvedilol"}, {"compound": "COc1ccccc1OCCNCCC(O)COc1ccc2[nH]c3ccccc3c2c1", "note": "(stereo not drawn) [Compound 46]", "SOICR inhibitory activity in words": "more potent product than carvedilol"}, {"compound": "COc1ccccc1OCCNCC(O)COc1cccc2ccccc12", "note": "(stereo not drawn) [Compound 68]", "SOICR inhibitory activity in words": "potent SOICR inhibitors"}, {"compound": "COc1ccccc1OCCNCC(O)CCOc1cccc2ccccc12", "note": "(stereo not drawn) [Compound 69]", "SOICR inhibitory activity in words": "potent SOICR inhibitors"}, {"compound": "COc1ccccc1OCCNCC(O)COc1ccc2[nH]c3ccc(Br)cc3c2c1Br", "note": "(stereo not drawn) [Compound 97]", "SOICR inhibitory activity in words": "improved substantially; also recorded: complete absence of SOICR inhibitory activity; also recorded: measurable effect on SOICR suppression"}, {"compound": "COc1ccc2c(c1)CN(C)CCS2.Cl", "note": "[Compound 100, reference compound]", "SOICR inhibitory activity in words": "neither S107, its hydrochloride salt 100, nor its isomer 101 displayed any measurable activity"}, {"compound": "COc1ccc2c(c1)N(C)CCCS2", "note": "[Compound 101, reference compound]", "SOICR inhibitory activity in words": "neither S107, its hydrochloride salt 100, nor its isomer 101 displayed any measurable activity"}, {"compound": "COc1ccc2c(c1)CN(C(=O)CCN1CCC(Cc3ccccc3)CC1)CCS2.Cl", "note": "[Compound 102, JTV519, reference compound]", "SOICR inhibitory activity in words": "some SOICR inhibitory activity"}]}, {"target": "T1, RyR2-R4496C mutant HEK-293 cell line", "test": "SOICR inhibition, single cell bioassay (fura 2/AM calcium fluorescence)", "assay_type": "cell-based", "settings": "RyR2-R4496C mutant HEK293 single cell bioassay; listed as JTV519 (102)", "protocol": "as §1, §2", "values": [{"compound": "COc1ccc2c(c1)CN(C(=O)CCN1CCC(Cc3ccccc3)CC1)CCS2.Cl", "note": "[Compound 102, JTV519, reference compound]", "SOICR inhibitory activity in words": "measurable effect on SOICR suppression"}]}, {"tested_on": "β-adrenergic receptor", "test": "not given", "settings": "already shown; cited from earlier work", "values": [{"compound": "COc1ccccc1OCCNCC(O)CCOc1cccc2[nH]c3ccccc3c12", "note": "(stereo not drawn) [Compound 2]", "reduction of β-blockade relative to carvedilol": "about 1000 fold"}, {"compound": "COc1ccccc1OCCNCC(O)COc1ccc2[nH]c3ccccc3c2c1", "note": "(stereo not drawn) [Compound 3]", "reduction of β-blockade relative to carvedilol": "about 1000 fold"}, {"compound": "COc1ccccc1OCCNCC(O)COc1ccc2c(c1)[nH]c1ccccc12", "note": "(stereo not drawn) [Compound 4]", "reduction of β-blockade relative to carvedilol": "about 1000 fold"}]}]}
